According to PMC6073470 (International Journal of Molecular Sciences, 2018):

Molecular target: the molecule itself
Test: SEC; Superdex 200 HR 10/30; 20 mM Tris/acetate pH 7.6, 150 mM NaCl, 0.1 mM EDTA, 0.1 mM PMSF, 15 mM beta-mercaptoethanol; 10-120 ug protein in 100 uL loaded; apparent mass from calibration, estimated number of subunits

B1: human small heat shock protein HspB4 (alphaA-crystallin), wild type (natural protein, UniProt P02489 1-173, looked up)
chain: MDVTIQHPWFKRTLGPFYPSRLFDQFFGEGLFEYDLLPFLSSTISPYYRQSLFRTVLDSGISEVRSDRDKFVIFLDVKHFSPEDLTVKVQDDFVEIHGKHNERQDDHGYISREFHRRYRLPSNVDQSALSCSLSADGMLTFCGPKIQTGLDATHAERAIPVSREEKPTSAPSS
notes: HspB4 (alphaA-crystallin), human; UniProt P02489; Expressed from pET23b; The printed monomeric mass (19.9 kDa) fits the whole protein; also called αA-crystallin; wild type HspB4; source: E. coli BL21(DE3)pLysS, purified (ammonium sulfate fractionation, HiTrap Q HP, Superdex-200 SEC)
stoichiometry N: ~30 monomers
